Chains of the proteins cited; added tags and fusions are not shown. Residues count along the entry.
UniProt Q30154, 30-266: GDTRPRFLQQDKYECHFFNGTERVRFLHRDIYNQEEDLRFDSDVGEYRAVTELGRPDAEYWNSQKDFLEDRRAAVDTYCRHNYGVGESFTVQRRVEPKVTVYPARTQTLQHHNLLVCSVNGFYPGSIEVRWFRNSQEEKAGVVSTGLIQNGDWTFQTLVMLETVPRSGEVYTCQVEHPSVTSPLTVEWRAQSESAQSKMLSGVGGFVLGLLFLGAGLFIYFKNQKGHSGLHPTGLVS
UniProt P79483, 30-266: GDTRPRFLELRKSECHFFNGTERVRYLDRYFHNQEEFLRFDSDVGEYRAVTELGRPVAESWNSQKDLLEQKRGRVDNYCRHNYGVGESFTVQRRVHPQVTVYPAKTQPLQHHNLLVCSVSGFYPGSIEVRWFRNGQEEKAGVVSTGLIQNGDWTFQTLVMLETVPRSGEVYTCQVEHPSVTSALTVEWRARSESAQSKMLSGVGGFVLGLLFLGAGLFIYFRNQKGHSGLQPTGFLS

According to patent publication US20060079453A1, “Hla binding peptides and their uses” (priority 2002, published 2006):

Assays:
Assay in all cases: biochemical
Type in all cases: binding
HLA-DR DRB1*0401 (DR4) = HLA-DR DRB1*0401 (DR4) (Homo sapiens, UniProt P01903+P01911, A100K/A169T/F76Y/I96L/K127E/L162R/M171V/N62H/P40V/Q125Y/R42H/S133A/S149N/S66Y/V115G/V209L/W38E); conditions: DRB1 *0401
HLA-DR DRB5*0101 (DR51) = HLA-DR DRB5*0101 (DR51) (Homo sapiens, UniProt P01903+Q30154)
HLA-DR DRB1*1101 (DR11) = HLA-DR DRB1*1101 (DR11) (Homo sapiens, UniProt P01903+P01911, A100R/A169T/A87E/I96F/K41T/L162R/M171V/P40S/Q125H/Q178H/Q39Y/Q99D/R42S/S66Y/T262R/V115G/W38E)
HLA-DR DRB1*0802 (DR8) = HLA-DR DRB1*0802 (DR8) (Homo sapiens, UniProt P01903+P01911, A100R/A103L/A169T/F76Y/H45Y/I96F/K41T/L162R/M171V/P40S/Q125H/Q178H/Q39Y/Q99D/R218S/R42G/S66Y/V115G/W38E)
HLA-DR DRB1*0301 (DR3) = HLA-DR DRB1*0301 (DR3) (Homo sapiens, UniProt P01903+P01911, A100K/A102G/A103R/A169T/F55Y/I96L/K41T/L162R/M171V/P40S/Q125H/Q178H/Q39Y/R42S/S66N/T106N/T262R/W38E/Y61H)
HLA-DR DRB3*0101 (DR52) = HLA-DR DRB3*0101 (DR52) (Homo sapiens, UniProt P01903+P79483)
HLA-DR DRB1*0701 (DR7) = HLA-DR DRB1*0701 (DR7) (Homo sapiens, UniProt P01903+P01911, A100R/A102G/A103Q/D57E/D86V/E43K/F76Y/K127E/L162R/M171V/P40G/Q125H/Q99D/R33Q/R42Y/R54Q/S133A/S66F/T210M/V115G/Y107V/Y59L/Y89S); conditions: DRB1 *0701

| Molecule | IC50 (HLA-DR DRB5*0101 (DR51); DRB5 *0101) [µM] | IC50 (HLA-DR DRB5*0101 (DR51); read-out: DRB5 *0101) [µM] | also measured |
| --- | --- | --- | --- |
| CC[C@H](C)[C@H](NC(=O)[C@H](CO)NC(=O)[C@@H](N)[C@@H](C)O)C(=O)N[C@H](C(=O)N[C@@H](CO)C(=O)N[C@@H](CC(C)C)C(=O)N[C@@H](Cc1ccc(O)cc1)C(=O)N[C@@H](CCC(N)=O)C(=O)N[C@@H](CC(C)C)C(=O)N[C@@H](CCC(=O)O)C(=O)N[C@@H](CC(N)=O)C(=O)N[C@@H](Cc1ccc(O)cc1)C(=O)N[C@H](C(=O)N[C@@H](CC(N)=O)C(=O)O)[C@@H](C)O)[C@@H](C)O |  |  | IC50 (HLA-DR DRB1*0401 (DR4)): 1.47 µM |
| CC[C@H](C)[C@H](NC(=O)[C@H](CO)NC(=O)[C@H](CCC(=O)O)NC(=O)[C@H](CO)NC(=O)[C@H](Cc1ccccc1)NC(=O)[C@H](CS)NC(=O)[C@H](CC(C)C)NC(=O)[C@H](CO)NC(=O)[C@@H](N)[C@@H](C)O)C(=O)N1CCC[C@H]1C(=O)N[C@H](C(=O)N1CCC[C@H]1C(=O)N[C@@H](CO)C(=O)N[C@@H](CC(N)=O)C(=O)N[C@@H](CCCNC(=N)N)C(=O)O)[C@@H](C)O | > 38.6 |  | IC50 (HLA-DR DRB1*1101 (DR11); DRB1 *1101): > 15.4 µM; IC50 (HLA-DR DRB1*0802 (DR8)): > 33.3 µM; IC50 (HLA-DR DRB1*0301 (DR3)): 183 µM; IC50 (HLA-DR DRB3*0101 (DR52)): 3.92 µM |
| CSCC[C@H](NC(=O)[C@H](CC(=O)O)NC(=O)[C@H](Cc1ccc(O)cc1)NC(=O)[C@H](CC(C)C)NC(=O)[C@@H]1CCCN1C(=O)[C@H](Cc1c[nH]cn1)NC(=O)[C@@H]1CCCN1C(=O)[C@H](Cc1ccccc1)NC(=O)[C@H](CO)NC(=O)[C@H](Cc1c[nH]cn1)NC(=O)[C@H](CO)NC(=O)[C@@H](NC(=O)[C@H](CCC(N)=O)NC(=O)[C@H](Cc1ccccc1)NC(=O)[C@@H](N)C(C)C)C(C)C)C(=O)O | 0.897 |  | IC50 (HLA-DR DRB1*1101 (DR11); DRB1 *1101): 0.881 µM |
| CC(C)C[C@H](NC(=O)[C@H](CC(=O)O)NC(=O)[C@H](C)NC(=O)[C@H](Cc1ccccc1)NC(=O)[C@H](C)NC(=O)[C@H](Cc1ccccc1)NC(=O)[C@H](CC(=O)O)NC(=O)[C@H](Cc1ccc(O)cc1)NC(=O)[C@@H](N)C(C)C)C(=O)N[C@H](C(=O)N[C@H](C(=O)N[C@H](C(=O)N[C@@H](Cc1ccc(O)cc1)C(=O)N[C@@H](CCCNC(=N)N)C(=O)N[C@@H](CCC(=O)O)C(=O)O)C(C)C)C(C)C)[C@@H](C)O | 27.3 |  |  |
| CC[C@H](C)[C@H](NC(=O)[C@H](Cc1ccc(O)cc1)NC(=O)[C@H](CC(C)C)NC(=O)[C@H](CC(C)C)NC(=O)[C@H](Cc1ccccc1)NC(=O)[C@@H](N)CC(C)C)C(=O)N[C@@H](CC(C)C)C(=O)N[C@@H](Cc1ccccc1)C(=O)N[C@@H](CC(C)C)C(=O)N[C@H](C(=O)N[C@@H](CCCCN)C(=O)N[C@@H](CCSC)C(=O)N[C@@H](CC(N)=O)C(=O)N[C@@H](C)C(=O)N[C@@H](CC(C)C)C(=O)O)C(C)C [LFLLYILFLVKMNAL] | 32.4 |  | IC50 (HLA-DR DRB1*0701 (DR7)): 4.87 µM |
| FAGIRRDGLLLRIVD |  | 1.35 | IC50 (HLA-DR DRB1*1101 (DR11); read-out: DRB1 *1101): 0.804 µM |
| FPTIPLSRLFDNAML |  | 11.5 |  |
| QKQLLTNHLINTPKI |  | 6.59 |  |
| SVTWIGAAPLILSRI |  | 0.104 | IC50 (HLA-DR DRB3*0101 (DR52); read-out: DRB3 *0101): 13.7 µM |
| YDFVFADLRIVYRDG |  | 11.2 |  |

Where two headings read alike, the source gives them in different places.
